Chains of the proteins cited; added tags and fusions are not shown. Lines headed by an entry give the natural chain unless they say otherwise; changes in a name come on top.
UniProt P37023, whole entry: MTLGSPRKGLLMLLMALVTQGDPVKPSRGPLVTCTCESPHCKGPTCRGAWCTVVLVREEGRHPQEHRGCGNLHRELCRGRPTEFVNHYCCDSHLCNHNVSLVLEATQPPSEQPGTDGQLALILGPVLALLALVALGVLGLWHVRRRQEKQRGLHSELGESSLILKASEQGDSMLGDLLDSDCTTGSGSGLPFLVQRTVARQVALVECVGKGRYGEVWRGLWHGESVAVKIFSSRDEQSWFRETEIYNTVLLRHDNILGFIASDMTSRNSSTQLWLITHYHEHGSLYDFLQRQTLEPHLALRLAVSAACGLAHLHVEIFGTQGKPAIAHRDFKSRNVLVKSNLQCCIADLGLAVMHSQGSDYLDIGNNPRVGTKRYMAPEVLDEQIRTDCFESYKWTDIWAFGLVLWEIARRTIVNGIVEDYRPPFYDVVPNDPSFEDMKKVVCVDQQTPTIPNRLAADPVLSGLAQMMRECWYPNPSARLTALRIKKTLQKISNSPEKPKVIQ
UniProt Q9HCP0: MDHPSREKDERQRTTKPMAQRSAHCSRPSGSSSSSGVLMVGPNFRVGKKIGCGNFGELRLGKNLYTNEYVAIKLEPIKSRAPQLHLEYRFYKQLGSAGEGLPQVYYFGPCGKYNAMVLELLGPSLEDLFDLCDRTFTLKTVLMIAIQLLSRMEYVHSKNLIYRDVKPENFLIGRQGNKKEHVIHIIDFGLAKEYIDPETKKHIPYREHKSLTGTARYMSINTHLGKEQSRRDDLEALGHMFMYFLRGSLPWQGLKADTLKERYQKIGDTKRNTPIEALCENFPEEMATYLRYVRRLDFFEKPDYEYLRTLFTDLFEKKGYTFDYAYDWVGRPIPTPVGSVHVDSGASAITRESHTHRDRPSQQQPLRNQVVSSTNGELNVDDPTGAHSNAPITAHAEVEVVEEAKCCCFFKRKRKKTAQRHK
UniProt P16591: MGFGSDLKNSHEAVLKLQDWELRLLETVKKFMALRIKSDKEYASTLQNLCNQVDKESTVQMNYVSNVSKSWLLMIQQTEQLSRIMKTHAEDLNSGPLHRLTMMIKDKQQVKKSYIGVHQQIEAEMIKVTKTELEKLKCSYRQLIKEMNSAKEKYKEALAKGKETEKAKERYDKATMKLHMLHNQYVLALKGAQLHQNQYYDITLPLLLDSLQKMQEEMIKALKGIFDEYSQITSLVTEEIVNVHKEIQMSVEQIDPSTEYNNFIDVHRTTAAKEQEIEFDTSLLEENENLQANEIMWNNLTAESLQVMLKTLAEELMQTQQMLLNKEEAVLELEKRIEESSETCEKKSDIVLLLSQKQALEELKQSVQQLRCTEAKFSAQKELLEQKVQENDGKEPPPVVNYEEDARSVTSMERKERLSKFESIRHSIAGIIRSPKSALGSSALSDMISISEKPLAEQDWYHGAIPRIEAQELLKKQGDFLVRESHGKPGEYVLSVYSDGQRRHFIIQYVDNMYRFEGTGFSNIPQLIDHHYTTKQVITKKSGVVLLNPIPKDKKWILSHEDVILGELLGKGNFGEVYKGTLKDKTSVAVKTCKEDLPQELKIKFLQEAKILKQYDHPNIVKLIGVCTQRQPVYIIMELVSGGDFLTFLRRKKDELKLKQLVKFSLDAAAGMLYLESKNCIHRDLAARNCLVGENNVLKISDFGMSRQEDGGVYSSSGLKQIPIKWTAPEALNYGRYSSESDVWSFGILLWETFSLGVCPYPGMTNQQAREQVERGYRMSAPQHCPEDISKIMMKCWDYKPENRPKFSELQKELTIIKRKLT
UniProt P52333: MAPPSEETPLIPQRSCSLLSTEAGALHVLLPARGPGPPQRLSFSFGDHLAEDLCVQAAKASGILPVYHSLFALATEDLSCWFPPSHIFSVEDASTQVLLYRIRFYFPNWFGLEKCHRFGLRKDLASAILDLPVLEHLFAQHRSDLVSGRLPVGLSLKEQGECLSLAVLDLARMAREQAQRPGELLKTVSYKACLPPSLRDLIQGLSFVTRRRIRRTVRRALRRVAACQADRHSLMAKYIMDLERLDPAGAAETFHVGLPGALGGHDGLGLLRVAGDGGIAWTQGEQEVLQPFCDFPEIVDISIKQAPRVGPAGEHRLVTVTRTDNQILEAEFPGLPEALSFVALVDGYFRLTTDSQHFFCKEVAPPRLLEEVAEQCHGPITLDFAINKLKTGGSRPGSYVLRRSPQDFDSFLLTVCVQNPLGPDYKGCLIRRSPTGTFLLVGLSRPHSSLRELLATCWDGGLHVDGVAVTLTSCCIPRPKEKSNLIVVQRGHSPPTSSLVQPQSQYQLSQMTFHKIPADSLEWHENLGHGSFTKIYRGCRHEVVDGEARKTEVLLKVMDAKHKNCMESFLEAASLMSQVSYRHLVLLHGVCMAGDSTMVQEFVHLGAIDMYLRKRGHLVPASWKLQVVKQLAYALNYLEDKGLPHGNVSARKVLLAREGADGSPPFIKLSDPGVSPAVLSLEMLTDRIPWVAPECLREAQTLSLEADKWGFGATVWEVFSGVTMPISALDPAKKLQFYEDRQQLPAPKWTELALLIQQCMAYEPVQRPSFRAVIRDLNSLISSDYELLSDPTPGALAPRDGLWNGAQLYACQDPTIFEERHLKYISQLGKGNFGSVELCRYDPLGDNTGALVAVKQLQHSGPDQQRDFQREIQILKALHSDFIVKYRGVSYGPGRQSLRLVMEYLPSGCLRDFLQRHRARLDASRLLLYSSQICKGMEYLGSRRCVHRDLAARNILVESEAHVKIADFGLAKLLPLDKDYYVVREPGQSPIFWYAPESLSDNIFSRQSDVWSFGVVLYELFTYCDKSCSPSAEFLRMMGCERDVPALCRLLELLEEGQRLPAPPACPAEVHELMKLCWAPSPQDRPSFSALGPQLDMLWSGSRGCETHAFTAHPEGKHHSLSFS
UniProt Q12866: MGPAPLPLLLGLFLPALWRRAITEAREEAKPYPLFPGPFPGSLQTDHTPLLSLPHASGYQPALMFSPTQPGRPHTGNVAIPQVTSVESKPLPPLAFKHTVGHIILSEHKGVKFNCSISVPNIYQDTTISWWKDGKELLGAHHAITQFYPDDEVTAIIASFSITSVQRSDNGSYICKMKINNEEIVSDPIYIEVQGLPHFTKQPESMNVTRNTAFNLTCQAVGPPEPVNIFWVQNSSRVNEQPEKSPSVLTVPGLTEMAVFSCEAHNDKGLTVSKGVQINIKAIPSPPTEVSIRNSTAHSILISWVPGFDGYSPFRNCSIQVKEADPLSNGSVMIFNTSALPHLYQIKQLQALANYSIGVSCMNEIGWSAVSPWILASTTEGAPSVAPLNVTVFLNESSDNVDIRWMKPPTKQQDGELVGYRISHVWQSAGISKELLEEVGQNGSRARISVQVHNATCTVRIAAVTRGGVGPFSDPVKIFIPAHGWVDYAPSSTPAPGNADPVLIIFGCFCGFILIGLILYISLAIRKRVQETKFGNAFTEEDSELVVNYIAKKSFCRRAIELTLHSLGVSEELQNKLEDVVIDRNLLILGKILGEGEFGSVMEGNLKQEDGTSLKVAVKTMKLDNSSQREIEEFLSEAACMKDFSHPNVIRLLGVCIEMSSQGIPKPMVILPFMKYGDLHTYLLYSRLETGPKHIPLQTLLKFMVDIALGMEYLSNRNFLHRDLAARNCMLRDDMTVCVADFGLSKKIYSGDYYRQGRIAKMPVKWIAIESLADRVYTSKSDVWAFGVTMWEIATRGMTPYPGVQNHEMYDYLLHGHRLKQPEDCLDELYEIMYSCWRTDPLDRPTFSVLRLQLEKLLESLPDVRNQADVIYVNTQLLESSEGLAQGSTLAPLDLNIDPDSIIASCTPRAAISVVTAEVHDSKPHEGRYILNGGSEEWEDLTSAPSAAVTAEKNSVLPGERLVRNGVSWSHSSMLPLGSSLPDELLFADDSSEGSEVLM
UniProt Q96RG2: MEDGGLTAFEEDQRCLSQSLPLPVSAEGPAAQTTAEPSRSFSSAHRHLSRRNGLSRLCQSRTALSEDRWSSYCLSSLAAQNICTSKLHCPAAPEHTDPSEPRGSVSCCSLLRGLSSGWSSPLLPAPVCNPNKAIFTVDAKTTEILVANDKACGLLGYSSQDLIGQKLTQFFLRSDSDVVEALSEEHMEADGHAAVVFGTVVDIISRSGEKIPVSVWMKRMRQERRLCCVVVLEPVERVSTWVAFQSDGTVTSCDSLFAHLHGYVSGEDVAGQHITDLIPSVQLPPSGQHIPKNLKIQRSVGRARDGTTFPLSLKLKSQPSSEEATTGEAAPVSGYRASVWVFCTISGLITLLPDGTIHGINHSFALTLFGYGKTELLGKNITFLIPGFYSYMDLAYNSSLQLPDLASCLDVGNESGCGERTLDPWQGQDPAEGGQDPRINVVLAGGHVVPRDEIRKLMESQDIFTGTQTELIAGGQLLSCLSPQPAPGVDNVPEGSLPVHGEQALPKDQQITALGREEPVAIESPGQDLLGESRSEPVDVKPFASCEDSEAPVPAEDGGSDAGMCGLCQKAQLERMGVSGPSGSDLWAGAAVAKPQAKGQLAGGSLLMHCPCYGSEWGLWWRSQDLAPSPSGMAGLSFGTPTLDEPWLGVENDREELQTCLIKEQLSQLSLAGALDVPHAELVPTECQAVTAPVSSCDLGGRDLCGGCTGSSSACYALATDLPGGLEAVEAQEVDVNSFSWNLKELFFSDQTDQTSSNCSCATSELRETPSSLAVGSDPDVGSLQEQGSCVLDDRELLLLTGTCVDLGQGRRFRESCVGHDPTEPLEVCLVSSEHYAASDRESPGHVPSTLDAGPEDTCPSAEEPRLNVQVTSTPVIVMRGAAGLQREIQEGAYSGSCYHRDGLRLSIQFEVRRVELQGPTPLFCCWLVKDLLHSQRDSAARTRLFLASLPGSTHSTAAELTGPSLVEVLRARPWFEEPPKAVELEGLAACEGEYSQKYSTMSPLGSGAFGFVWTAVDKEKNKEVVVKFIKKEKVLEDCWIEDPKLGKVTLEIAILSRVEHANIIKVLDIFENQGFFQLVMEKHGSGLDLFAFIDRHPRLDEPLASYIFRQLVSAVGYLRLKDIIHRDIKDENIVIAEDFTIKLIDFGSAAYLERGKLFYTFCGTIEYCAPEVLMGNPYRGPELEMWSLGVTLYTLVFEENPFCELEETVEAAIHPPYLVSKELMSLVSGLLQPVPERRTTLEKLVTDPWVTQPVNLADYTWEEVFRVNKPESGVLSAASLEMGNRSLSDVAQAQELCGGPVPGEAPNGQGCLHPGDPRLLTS
UniProt Q16620, whole entry: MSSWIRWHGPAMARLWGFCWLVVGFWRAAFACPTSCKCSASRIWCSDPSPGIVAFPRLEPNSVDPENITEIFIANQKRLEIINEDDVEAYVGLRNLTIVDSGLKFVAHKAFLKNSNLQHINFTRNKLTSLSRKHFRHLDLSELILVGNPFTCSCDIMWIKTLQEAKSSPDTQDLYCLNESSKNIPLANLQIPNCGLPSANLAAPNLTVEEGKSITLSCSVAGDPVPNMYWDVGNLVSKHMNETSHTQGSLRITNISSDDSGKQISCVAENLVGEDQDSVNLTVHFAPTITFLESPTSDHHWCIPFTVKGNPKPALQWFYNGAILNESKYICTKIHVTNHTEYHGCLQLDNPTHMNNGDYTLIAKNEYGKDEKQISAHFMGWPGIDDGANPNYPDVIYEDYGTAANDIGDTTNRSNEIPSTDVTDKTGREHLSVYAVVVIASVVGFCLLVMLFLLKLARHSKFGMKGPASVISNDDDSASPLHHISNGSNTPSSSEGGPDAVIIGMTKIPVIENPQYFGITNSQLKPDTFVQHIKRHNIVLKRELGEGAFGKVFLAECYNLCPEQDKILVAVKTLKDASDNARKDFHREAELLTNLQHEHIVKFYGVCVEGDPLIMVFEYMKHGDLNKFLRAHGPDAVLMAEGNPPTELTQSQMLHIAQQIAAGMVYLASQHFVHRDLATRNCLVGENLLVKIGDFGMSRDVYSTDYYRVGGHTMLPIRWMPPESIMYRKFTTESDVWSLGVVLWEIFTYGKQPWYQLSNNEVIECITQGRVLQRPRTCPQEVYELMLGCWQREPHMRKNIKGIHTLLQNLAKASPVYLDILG
UniProt O00506, whole entry: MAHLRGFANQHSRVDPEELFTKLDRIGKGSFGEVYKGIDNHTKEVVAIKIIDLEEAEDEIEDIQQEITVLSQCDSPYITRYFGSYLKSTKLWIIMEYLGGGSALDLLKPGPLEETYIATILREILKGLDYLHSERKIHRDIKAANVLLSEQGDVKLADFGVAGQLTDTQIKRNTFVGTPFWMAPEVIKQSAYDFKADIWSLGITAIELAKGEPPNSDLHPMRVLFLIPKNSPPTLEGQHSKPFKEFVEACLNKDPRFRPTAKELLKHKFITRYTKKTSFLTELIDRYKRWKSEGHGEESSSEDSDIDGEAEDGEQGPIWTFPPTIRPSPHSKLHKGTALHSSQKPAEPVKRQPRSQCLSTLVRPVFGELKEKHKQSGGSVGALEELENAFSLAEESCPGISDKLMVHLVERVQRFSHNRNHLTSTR

According to publication PMC7611940, “A Conformation Selective Mode of Inhibiting SRC Improves Drug Efficacy and Tolerability” (Cancer Research, 2021):

Tests used:
Assay in all cases: biochemical
Conditions in all cases: read-out: % remaining activity
AKT1 = AKT1 (Homo sapiens, UniProt P31749)
ALK1 = target: T1, ALK1 (Homo sapiens, UniProt P37023)
T1 construct: gene ACVRL1

BLK = BLK (Homo sapiens, UniProt P51451)
BTK = BTK (Homo sapiens, UniProt Q06187)
CAMK2b = CAMK2b (Homo sapiens, UniProt Q13554)
CDK1/cyclin B = CDK1/cyclin B (Homo sapiens, UniProt P06493)
CDK5/p25 = CDK5/p25 (Homo sapiens, UniProt Q00535)
CDK5/p35 = CDK5/p35 (Homo sapiens, UniProt Q00535)
CK1g1 = target: T2, CK1g1 (Homo sapiens, UniProt Q9HCP0)
T2 construct: gene CSNK1G1

CSF1R = CSF1R (Homo sapiens, UniProt P07333)
EPHA5 = EPHA5 (Homo sapiens, UniProt P54756)
EPHB1 = EPHB1 (Homo sapiens, UniProt P54762)
FER = FER (Homo sapiens, UniProt P16591)
FGFR2 = FGFR2 (Homo sapiens, UniProt P21802)
IR = target: T3, IR (Homo sapiens, UniProt P06213)
T3 construct: gene INSR

JAK1 = JAK1 (Homo sapiens, UniProt P23458)
JAK3 = JAK3 (Homo sapiens, UniProt P52333)
LIMK2 = LIMK2 (Homo sapiens, UniProt P53671)
LRRK2 = LRRK2 (Homo sapiens, UniProt Q5S007)
LYN B = LYN B (Homo sapiens, UniProt P07948)
MAP4K3 = MAP4K3 (Homo sapiens, UniProt Q8IVH8)
MEK1 = target: T4, MEK1 (Homo sapiens, UniProt Q02750)
T4 construct: gene MAP2K1

MER = target: T5, MER (Homo sapiens, UniProt Q12866)
T5 construct: gene MERTK

PASK = PASK (Homo sapiens, UniProt Q96RG2)
PDGFRa = PDGFRa (Homo sapiens, UniProt P16234)
PKCiota = target: T6, PKCiota (Homo sapiens, UniProt P41743)
T6 construct: gene PRKCI

PKN1 = PKN1 (Homo sapiens, UniProt Q16512)
PYK2 = target: T7, PYK2 (Homo sapiens, UniProt Q14289)
T7 construct: gene PTK2B

RIPK2 = RIPK2 (Homo sapiens, UniProt O43353)
TAOK1 = TAOK1 (Homo sapiens, UniProt Q7L7X3)
TEC = TEC (Homo sapiens, UniProt P42680)
TLK2 = TLK2 (Homo sapiens, UniProt Q86UE8)
TRKB = target: T8, TRKB (Homo sapiens, UniProt Q16620)
T8 construct: gene NTRK2

WEE1 = WEE1 (Homo sapiens, UniProt P30291)
YSK1 = target: T9, YSK1 (Homo sapiens, UniProt O00506)
T9 construct: gene STK25

ZAK = target: T10, ZAK (Homo sapiens, UniProt Q9NYL2)
T10 construct: gene MAP3K20

remaining activity at 1 µM (AKT1): 106%
remaining activity at 1 µM (ALK1): 85.9%
remaining activity at 1 µM (BLK): 4.8%
remaining activity at 1 µM (BTK): 3.8%
remaining activity at 1 µM (CAMK2b): 104%
remaining activity at 1 µM (CDK1/cyclin B): 95.3%
remaining activity at 1 µM (CDK5/p25): 98.9%
remaining activity at 1 µM (CDK5/p35): 102%
remaining activity at 1 µM (CK1g1): 99.2%
remaining activity at 1 µM (CSF1R): 103%
remaining activity at 1 µM (EPHA5): 92%
remaining activity at 1 µM (EPHB1): 116%
remaining activity at 1 µM (FER): 108%
remaining activity at 1 µM (FGFR2): 110%
remaining activity at 1 µM (IR): 112%
remaining activity at 1 µM (JAK1): 102%
remaining activity at 1 µM (JAK3): 111%
remaining activity at 1 µM (LIMK2): 30%
remaining activity at 1 µM (LRRK2): 96.6%
remaining activity at 1 µM (LYN B): 2%
remaining activity at 1 µM (MAP4K3): 87%
remaining activity at 1 µM (MEK1): 91.1%
remaining activity at 1 µM (MER): 30.1%
remaining activity at 1 µM (PASK): 111%
remaining activity at 1 µM (PDGFRa): 115%
remaining activity at 1 µM (PKCiota): 102%
remaining activity at 1 µM (PKN1): 92.1%
remaining activity at 1 µM (PYK2): 100%
remaining activity at 1 µM (RIPK2): 76.8%
remaining activity at 1 µM (TAOK1): 95%
remaining activity at 1 µM (TEC): 43.9%
remaining activity at 1 µM (TLK2): 100%
remaining activity at 1 µM (TRKB): 95.9%
remaining activity at 1 µM (WEE1): 96.2%
remaining activity at 1 µM (YSK1): 112%
remaining activity at 1 µM (ZAK): 83.4%
SMILES: COc1cc(-c2nn(CCN3CCC(N(C)C)CC3)c3ncnc(N)c23)ccc1NC(=O)OC(C)(C)C [eCF506]
